“Also recorded” adds a separate entry of the source.
Columns and labels:
L929 = experiment: cell viability assay on L929 normal cell line; assay type: cell-based; settings: FIG. 5B; normal mouse fibroblast cell line
[1] = weight monitoring in mouse xenograft model; assay type: in vivo, BALB/c mice; settings: FIG. 6B, PANC-1 model, dose: docetaxel standard, 20 mg/kg
Method: FIGS. 6A and 6B show the anticancer efficacy result of the A3Tx in the animal experiment (i.e., the mouse xenograft model) in accordance with one implementation of the present disclosure. […] Normally, non-treated group is injected with saline (NaCl solution) in anti-cancer efficacy study.

For “docetaxel-aconitic anhydride conjugate [A3Tx]”, the “cytotoxicity toward normal cell line L929” value (L929) was “lower cytotoxicity; also recorded: low cytotoxicity” and the body weight loss [1] was “no weight loss was observed; also recorded: no significant loss of body weight”.
